Assay results reported in publication doi:10.1101/2024.06.30.601371 (bioRxiv, 2024).

B1: mKO2-tagged RIβ-A67V (natural protein)
chain: not shown
B2: mKO2-tagged RIβ-R68Q (natural protein)
chain: not shown
B3: mKO2-tagged RIβ-I40V (natural protein)
chain: not shown

Target: the molecule itself
Experiment: non-reducing SDS-PAGE with Western blot

Protein | stoichiometry N
B1 | 2
B2 | 2
B3 | 2
